# Assay results from paper PMC7723054.
# The list shows a part of the results.
# T1: LIN28A (human?, UniProt Q9H9Z2 1-209)
# T1 sequence: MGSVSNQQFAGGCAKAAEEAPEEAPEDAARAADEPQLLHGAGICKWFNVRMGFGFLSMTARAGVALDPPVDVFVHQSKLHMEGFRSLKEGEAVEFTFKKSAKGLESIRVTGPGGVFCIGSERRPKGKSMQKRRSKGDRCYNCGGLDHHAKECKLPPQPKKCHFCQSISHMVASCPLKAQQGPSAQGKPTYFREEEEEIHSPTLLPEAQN
# T2: CIRBP (Homo sapiens, UniProt Q14011 1-172)
# T2 sequence: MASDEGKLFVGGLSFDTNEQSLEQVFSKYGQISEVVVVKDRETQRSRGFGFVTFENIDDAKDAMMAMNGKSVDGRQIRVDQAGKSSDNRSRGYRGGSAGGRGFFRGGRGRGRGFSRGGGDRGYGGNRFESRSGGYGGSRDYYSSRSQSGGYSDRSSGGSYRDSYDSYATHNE
# T3: DHX36 (Homo sapiens, UniProt Q9H2U1 1-1008)
# T3 sequence: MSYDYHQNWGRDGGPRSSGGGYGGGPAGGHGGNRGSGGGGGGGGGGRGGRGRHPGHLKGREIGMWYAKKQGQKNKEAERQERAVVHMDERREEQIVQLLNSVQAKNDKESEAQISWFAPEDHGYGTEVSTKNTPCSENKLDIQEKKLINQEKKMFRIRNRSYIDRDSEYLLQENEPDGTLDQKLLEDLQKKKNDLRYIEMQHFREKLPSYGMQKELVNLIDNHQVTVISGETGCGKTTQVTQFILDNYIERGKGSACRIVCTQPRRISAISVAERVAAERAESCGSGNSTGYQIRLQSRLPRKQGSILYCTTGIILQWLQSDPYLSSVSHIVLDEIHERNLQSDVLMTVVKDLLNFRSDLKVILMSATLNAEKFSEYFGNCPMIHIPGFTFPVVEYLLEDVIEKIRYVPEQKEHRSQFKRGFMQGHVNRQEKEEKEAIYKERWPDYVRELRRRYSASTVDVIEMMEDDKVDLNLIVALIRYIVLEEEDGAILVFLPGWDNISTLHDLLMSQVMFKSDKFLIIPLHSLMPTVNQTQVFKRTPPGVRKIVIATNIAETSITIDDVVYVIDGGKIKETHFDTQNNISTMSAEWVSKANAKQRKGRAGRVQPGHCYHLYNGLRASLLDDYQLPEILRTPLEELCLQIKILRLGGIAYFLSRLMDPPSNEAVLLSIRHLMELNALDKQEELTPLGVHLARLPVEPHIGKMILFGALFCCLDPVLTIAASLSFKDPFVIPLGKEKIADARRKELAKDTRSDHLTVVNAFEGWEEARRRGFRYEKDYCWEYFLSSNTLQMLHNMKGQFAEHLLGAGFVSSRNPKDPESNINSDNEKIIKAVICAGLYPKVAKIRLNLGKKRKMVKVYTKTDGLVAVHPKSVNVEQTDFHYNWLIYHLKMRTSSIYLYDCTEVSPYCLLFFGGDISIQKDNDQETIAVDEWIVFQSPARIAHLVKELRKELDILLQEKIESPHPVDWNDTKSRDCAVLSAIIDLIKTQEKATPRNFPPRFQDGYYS
# B1: hsa-mir-7109 (structured_RNA)
# RNA: GGGAAAGUCACUACACGUGUUUACGCAGGGUGUACGAAGUUUCAGCCUGCUCUCCCUGGCAGCAAGGCUGAAGCUUCGUGCAC
# B2: hsa-mir-4796 (structured_RNA)
# RNA: GGGACCACAUUGGAUCGACCGCAACUCGGGUGUACGAAGUUUCAGCUUUACUUUUGGCCUCAAGUCAUUGCAGUAAAGCUGAAGCUUCGUGCAC
# B3: NEAT1_ParasoR_ID48 (structured_RNA)
# RNA: GGGAGGUAUCCCAUCCGCCAAAUUGAUGGGUGUACGAAGUUUCAGCGUGUCUUUCUGGUAUAAUGACUUCUUUUCCUUUGGGUAGAUACGCUGAAGCUUCGUGCAC
# B4: hsa-mir-4275 (structured_RNA)
# RNA: GGGAGGACUUAGAGCUCGCCAAGCAUGCGGUGUACGAAGUUUCAGCCUUUUUGCCACCUGAGCACAGUCAGCAGUCAGCAUAAAAGCUGAAGCUUCGUGCAC
# B5: hsa-mir-4426 (structured_RNA)
# RNA: GGGACGCCGAGCUAUGGUAAGUUCAUGCGGUGUACGAAGUUUCAGCCUUUGUCUGACUACAAUAUUCAAAAGGCUGAAGCUUCGUGCAC
# B6: hsa-mir-4691 (structured_RNA)
# RNA: GGGAAAUAAAGAAUGGGUAGUUUCGCACGGUGUACGAAGUUUCAGCCUGCGGCCCUGAUGUCUCUACUCCAGGCUGAAGCUUCGUGCAC
# B7: hsa-mir-5002 (structured_RNA)
# RNA: GGGAAACUAGUAUUUCAGCCGUAUGCGAGGUGUACGAAGUUUCAGCCUUAGUAGGUGAUAGCAUGACUGACGCUGAAGCUUCGUGCAC
# B8: hsa-mir-6508 (structured_RNA)
# RNA: GGGAACAAUAUCACAACAAGCCGUGAUCGGUGUACGAAGUUUCAGCCCCACCCUGAGUUUUGGUGGGGCUGAAGCUUCGUGCAC
# B9: NEAT1_ParasoR_ID38 (structured_RNA)
# RNA: GGGAAUACCCGGGAACUGCCAAUAUGAUGGUGUACGAAGUUUCAGCGGUUUUCCGCUGAAGCUUCGUGCAC
# B10: hsa-mir-3689d-2 (structured_RNA)
# RNA: GGGAGUCGCCCGGUCAACUAAGAAACCAGGUGUACGAAGUUUCAGCCUCGCUGGGAGGUGUGCUAUCGUCUUCCCUGGGAGGCUGAAGCUUCGUGCAC
# B11: hsa-mir-6852 (structured_RNA)
# RNA: GGGAUAUCGCUACGAUGAAAGCUUGUACGGUGUACGAAGUUUCAGCGACAUGCUCUGACUCCCCUGAUGUCGCUGAAGCUUCGUGCAC
# B12: hsa-mir-6795 (structured_RNA)
# RNA: GGGAAUGCGCAUAGCCAACGGAACUAACGGUGUACGAAGUUUCAGCAGGCUGUCUUCAUUCCCUCUUGACCACCCGCUGAAGCUUCGUGCAC
# B13: hsa-mir-570 (structured_RNA)
# RNA: GGGAACGCGCAGGUGCAAGGAUCACAUUGGUGUACGAAGUUUCAGCUUUCCCAUUAUUUUAAUUGCGAAGCUGAAGCUUCGUGCAC
# B14: NEAT1_ParasoR_ID37 (structured_RNA)
# RNA: GGGAAGCAACAGAGUACGUCAAACAUUGGGUGUACGAAGUUUCAGCUGACUUUCUGGUUAUAAUCAUUCUAAUGAGUGUGAAGUAGCCUCUGGUGUCAGCUGAAGCUUCGUGCAC
# B15: NEAT1_ParasoR_ID40 (structured_RNA)
# RNA: GGGAGCUAAAGAGCGAUGCACGAAUAUGGGUGUACGAAGUUUCAGCCUGAGUUGUAAGAGUUCUUUAUAUAUUCUGGAUUCUAGACCCUUAUCAGGCUGAAGCUUCGUGCAC
# B16: hsa-mir-4720 (structured_RNA)
# RNA: GGGAUGACCAUUGGAUAUAGCAACAAGCGGUGUACGAAGUUUCAGCACUUAAGCACCAGGUAAAAUCUGGUGCUUAAGUGCUGAAGCUUCGUGCAC
# B17: hsa-mir-3134 (structured_RNA)
# RNA: GGGACCACCUCCAUGUCCCAUGUCCAUCGGUGUACGAAGUUUCAGCCUCACAUGGAGUAAAAUAUGAUGCUGAAGCUUCGUGCAC
# B18: hsa-mir-7158 (structured_RNA)
# RNA: GGGAAGCACCAUGCGGAGAGAACAUCAGGGUGUACGAAGUUUCAGCGCAGCCUUCUGCCUUUGGCUUUCUGAAGCGAGCUGAGCUGAAGCUUCGUGCAC
# B19: hsa-mir-191 (structured_RNA)
# RNA: GGGAGAUUGACUACACGGAUCCUGACCGGGUGUACGAAGUUUCAGCCAGCUGUUGUCUCCAGAGCAUUCCAGCUGGCUGAAGCUUCGUGCAC
# B20: hsa-let-7f-1 (structured_RNA)
# RNA: GGGAAGUACCCGUAGCAAUUAUACGACUGGUGUACGAAGUUUCAGCAUAGUUGUGGGGUAGUGAUUUUACCCUGUUCAGGAGAUAACUAUGCUGAAGCUUCGUGCAC
# B21: hsa-mir-4727 (structured_RNA)
# RNA: GGGAAGGGUCUACGAUGUAUCAGAACAUGGUGUACGAAGUUUCAGCCAGUGGCAGAUUUUCCCAUAGGCUGAAGCUUCGUGCAC
# B22: hsa-mir-363 (structured_RNA)
# RNA: GGGAAUGGGACCCGUGGAUUUCUAAGACGGUGUACGAAGUUUCAGCAAUUUUGAUGAGUAUCAUAGGAGAAAAAUUGCUGAAGCUUCGUGCAC
# Molecular target: U1A (Homo sapiens, UniProt P09012)
# Assay: FOREST: bead pull-down of RNA structure library v1, barcode microarray; U1A/LIN28A: 20 mM HEPES pH 7.5, 80 mM KCl, 20 mM NaCl, 10% glycerol, 2 mM DTT, 0.1 ug/uL BSA, 4 C; BG4/CIRBP/DHX36: 10 mM Tris-HCl pH 7.5, 100 mM KCl (or LiCl),; high values mean tight binding
row,Binder,binding signal
1,B1,0.349 z-score
2,B2,0.327 z-score
3,B3,0.338 z-score
4,B4,1.92 z-score
5,B5,0.342 z-score
6,B6,0.34 z-score
7,B7,0.354 z-score
8,B8,0.328 z-score
9,B9,0.338 z-score
10,B10,1.92 z-score
11,B11,0.344 z-score
12,B12,0.324 z-score
13,B13,0.33 z-score
14,B14,0.324 z-score
15,B15,0.328 z-score
16,B16,0.344 z-score
17,B17,0.34 z-score
18,B18,0.351 z-score
19,B19,0.337 z-score
20,B20,0.339 z-score
21,B21,0.341 z-score
22,B22,0.326 z-score

# Molecular target: T1, LIN28A
# Assay: as above
row,Binder,binding signal
1,B1,-1.67 z-score
2,B2,-1.5 z-score
3,B3,-0.052 z-score
4,B4,-1.1 z-score
5,B5,-0.504 z-score
6,B6,0.976 z-score
7,B7,2.5 z-score
8,B8,-0.724 z-score
9,B9,-1.6 z-score
10,B10,-0.246 z-score
11,B11,0.0776 z-score
12,B12,0.676 z-score
13,B13,-0.389 z-score
14,B14,-0.781 z-score
15,B15,1.2 z-score
16,B16,-0.135 z-score
17,B17,1.22 z-score
18,B18,-1.53 z-score
19,B19,-0.862 z-score
20,B20,3.89 z-score
21,B21,0.444 z-score
22,B22,1.69 z-score

# Molecular target: T2, CIRBP
# Assay: as above
row,Binder,binding signal
1,B1,-1.08 z-score
2,B2,-0.4 z-score
3,B3,-0.127 z-score
4,B4,-1.32 z-score
5,B5,-0.402 z-score
6,B6,-0.0212 z-score
7,B7,0.124 z-score
8,B8,-1.54 z-score
9,B9,-0.406 z-score
10,B10,0.112 z-score
11,B11,0.116 z-score
12,B12,1.41 z-score
13,B13,-0.897 z-score
14,B14,-0.414 z-score
15,B15,-0.474 z-score
16,B16,1.03 z-score
17,B17,1.88 z-score
18,B18,-0.693 z-score
19,B19,-1.19 z-score
20,B20,0.0327 z-score
21,B21,-1.19 z-score
22,B22,-0.343 z-score

# Molecular target: T3, DHX36
# Assay: as above
row,Binder,binding signal
1,B1,0.561 z-score
2,B2,-0.893 z-score
3,B3,-1.12 z-score
4,B4,0.15 z-score
5,B5,-1.06 z-score
6,B6,0.919 z-score
7,B7,-0.537 z-score
8,B8,-1.03 z-score
9,B9,-0.751 z-score
10,B10,0.0807 z-score
11,B11,-0.347 z-score
12,B12,0.373 z-score
13,B13,-0.683 z-score
14,B14,-0.941 z-score
15,B15,0.356 z-score
16,B16,-0.0294 z-score
17,B17,-0.217 z-score
18,B18,-0.376 z-score
19,B19,-0.0679 z-score
20,B20,0.113 z-score
21,B21,-0.747 z-score
22,B22,-0.548 z-score
